Among the data in BindingDB's records for doi:10.1021/jm00027a001 (Telios Pharmaceuticals, 1994) are IC50 values, retold here.

By UniProt entry, the sequences of proteins in these tests, tags left out. Residues count along the entry.
UniProt P08648, 895-1049 limits assumed: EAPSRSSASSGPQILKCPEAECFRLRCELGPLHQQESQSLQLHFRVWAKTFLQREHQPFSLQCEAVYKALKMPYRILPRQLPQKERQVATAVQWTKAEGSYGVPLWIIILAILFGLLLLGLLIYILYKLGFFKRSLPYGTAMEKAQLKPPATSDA
UniProt P08648, 42-894 limits assumed: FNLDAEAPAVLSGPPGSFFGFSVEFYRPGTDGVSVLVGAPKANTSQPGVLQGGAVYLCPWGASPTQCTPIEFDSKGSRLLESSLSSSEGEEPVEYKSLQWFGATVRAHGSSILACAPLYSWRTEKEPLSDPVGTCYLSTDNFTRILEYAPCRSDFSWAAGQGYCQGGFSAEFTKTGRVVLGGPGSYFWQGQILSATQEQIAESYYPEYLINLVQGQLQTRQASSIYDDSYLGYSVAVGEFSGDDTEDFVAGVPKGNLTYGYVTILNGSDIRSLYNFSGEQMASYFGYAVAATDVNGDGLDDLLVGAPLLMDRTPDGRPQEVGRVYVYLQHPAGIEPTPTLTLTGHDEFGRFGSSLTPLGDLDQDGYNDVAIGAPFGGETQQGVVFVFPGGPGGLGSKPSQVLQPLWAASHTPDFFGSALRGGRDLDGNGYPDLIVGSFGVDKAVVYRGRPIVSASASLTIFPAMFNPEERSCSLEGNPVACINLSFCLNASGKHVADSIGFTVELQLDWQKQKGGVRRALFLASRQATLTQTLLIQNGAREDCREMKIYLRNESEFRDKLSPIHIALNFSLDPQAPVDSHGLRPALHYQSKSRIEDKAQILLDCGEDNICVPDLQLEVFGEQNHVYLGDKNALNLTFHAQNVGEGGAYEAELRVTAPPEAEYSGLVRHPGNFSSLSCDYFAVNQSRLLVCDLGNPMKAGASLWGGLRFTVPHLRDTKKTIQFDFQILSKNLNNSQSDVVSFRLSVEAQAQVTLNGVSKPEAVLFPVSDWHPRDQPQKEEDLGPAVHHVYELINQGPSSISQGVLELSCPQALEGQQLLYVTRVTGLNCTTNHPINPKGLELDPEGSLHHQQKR
UniProt P05106, 27-788 limits assumed: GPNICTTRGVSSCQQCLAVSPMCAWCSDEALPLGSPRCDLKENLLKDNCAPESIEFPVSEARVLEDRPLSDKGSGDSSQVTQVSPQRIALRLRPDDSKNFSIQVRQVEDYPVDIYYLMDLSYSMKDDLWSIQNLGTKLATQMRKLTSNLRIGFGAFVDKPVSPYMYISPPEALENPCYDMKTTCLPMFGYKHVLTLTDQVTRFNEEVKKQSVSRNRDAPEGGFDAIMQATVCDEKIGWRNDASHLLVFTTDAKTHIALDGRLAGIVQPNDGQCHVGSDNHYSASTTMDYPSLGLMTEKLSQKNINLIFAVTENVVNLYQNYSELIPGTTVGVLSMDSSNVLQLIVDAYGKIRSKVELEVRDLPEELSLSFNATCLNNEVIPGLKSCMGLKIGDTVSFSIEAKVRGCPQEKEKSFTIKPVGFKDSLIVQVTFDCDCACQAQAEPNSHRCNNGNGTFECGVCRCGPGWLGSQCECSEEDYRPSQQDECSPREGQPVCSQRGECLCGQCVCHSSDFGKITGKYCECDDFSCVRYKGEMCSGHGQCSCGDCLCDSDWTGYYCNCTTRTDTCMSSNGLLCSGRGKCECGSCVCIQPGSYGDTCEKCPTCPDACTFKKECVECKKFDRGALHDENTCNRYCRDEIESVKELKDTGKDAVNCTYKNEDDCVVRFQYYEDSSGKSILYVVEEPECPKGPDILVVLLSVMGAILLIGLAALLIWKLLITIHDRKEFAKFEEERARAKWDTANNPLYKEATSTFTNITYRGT
UniProt P08514, 32-887 limits assumed: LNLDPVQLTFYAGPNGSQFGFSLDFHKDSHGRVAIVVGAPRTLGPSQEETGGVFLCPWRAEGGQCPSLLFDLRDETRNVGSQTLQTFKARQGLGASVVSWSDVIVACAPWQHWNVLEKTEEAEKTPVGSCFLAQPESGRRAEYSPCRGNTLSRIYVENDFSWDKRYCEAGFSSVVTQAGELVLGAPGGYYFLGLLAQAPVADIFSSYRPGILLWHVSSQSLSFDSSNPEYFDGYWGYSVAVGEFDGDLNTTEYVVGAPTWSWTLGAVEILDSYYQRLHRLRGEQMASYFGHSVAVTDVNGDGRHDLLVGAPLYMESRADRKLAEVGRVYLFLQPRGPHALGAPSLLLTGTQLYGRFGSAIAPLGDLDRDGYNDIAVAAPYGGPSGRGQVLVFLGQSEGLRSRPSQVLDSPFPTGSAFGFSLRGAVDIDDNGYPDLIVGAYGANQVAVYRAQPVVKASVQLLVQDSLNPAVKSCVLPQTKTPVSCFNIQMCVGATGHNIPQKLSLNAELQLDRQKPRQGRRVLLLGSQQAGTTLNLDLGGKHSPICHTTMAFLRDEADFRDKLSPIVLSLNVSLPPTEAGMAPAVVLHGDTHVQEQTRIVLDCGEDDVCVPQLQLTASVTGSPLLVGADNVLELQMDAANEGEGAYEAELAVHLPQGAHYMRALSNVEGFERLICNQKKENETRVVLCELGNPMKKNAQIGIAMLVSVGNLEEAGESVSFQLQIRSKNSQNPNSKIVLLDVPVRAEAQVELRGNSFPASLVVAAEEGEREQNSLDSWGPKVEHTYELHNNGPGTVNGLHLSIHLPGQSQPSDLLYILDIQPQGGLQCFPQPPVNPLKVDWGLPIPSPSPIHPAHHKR
UniProt P08514, 891-1039 limits assumed: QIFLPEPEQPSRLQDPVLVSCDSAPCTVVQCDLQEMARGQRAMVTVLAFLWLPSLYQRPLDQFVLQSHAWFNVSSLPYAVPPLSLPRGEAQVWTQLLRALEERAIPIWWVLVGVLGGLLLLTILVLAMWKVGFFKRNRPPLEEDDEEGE

Molecules are shown by their SMILES.

In one assay the target is Integrin alpha-5/beta-1 (Homo sapiens, UniProt P08648+P05556). Put plainly: Binding affinity against integrin alpha5-beta1 in enzyme linked immunosorbent assay (ELISA). (In general: An ELISA detects its analyte on a solid surface through an enzyme-linked reagent.)
Assay [1] deals with Integrin alpha-IIb/beta-3 (Homo sapiens, UniProt P05106+P08514). Put plainly: Binding affinity against integrin alpha 2b-beta 3 in enzyme linked immunosorbent assay (ELISA). The method in brief:
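Purified human platelet αIIbβ3 (from outdated platelets, octyl glucoside extract) in TBS with 20 mM octyl glucoside, 2 mM MgCl2 and 2 mM CaCl2 binds to plate-coated human fibrinogen (10 µg/mL in TBS) with 10-fold serial peptide dilutions for 3 h at room temperature. Bound receptor is detected with rabbit anti-αIIbβ3, then HRP anti-rabbit IgG, with o-phenylenediamine/H2O2 at pH 5.0. IC50 is reported.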

By IC50 is commonly meant the point on the concentration scale where inhibition reaches its midpoint. Low values mean inhibition by little substance, high ones a need for much substance. On Integrin alpha-5/beta-1, `CCCCOc1ccc(C[C@@H]2NC(=O)[C@H](CC(=O)O)NC(=O)CNC(=O)[C@H](CCCNC(=N)N)NC(=O)[C@H](Cc3c[nH]cn3)NC(=O)CNC(=O)[C@@H](NC(=O)[C@@H](N)CCCNC(=N)N)C3(CCCCC3)SSC[C@@H](C(=O)N[C@@H](CCCNC(=N)N)C(=O)O)NC(=O)[C@H](CCCNC(=N)N)NC2=O)cc1` [R(Pmc)-G-H-R-G-D-(Y-O-n-butyl)-R-C-R] showed an IC50 of 6.6 µM.
For `COc1ccc(C[C@@H]2NC(=O)[C@H](CC(=O)O)NC(=O)CNC(=O)[C@H](CCCNC(=N)N)NC(=O)[C@H](Cc3ccc(O)cc3)NC(=O)CNC(=O)[C@@H](NC(=O)[C@@H](N)CCCNC(=N)N)C3(CCCCC3)SSC[C@@H](C(=O)N[C@@H](CCCNC(=N)N)C(=O)O)NC(=O)[C@H](CCCNC(=N)N)NC2=O)cc1` [R(Pmc)-G-(DY)-R-G-D-(Y-OMe)-R-C-R], the IC50 in assay [1] was 0.03 µM. That is a double-digit nanomolar value.
Compound `COc1ccc(C[C@@H]2NC(=O)[C@H](CC(=O)O)NC(=O)CNC(=O)[C@H](CCCN=C(N)N)NC(=O)[C@H](Cc3c[nH]cn3)NC(=O)[C@H](CC(N)=O)NC(=O)[C@@H](NC(=O)[C@@H](N)CCCN=C(N)N)C3(CCCCC3)SSC[C@@H](C(=O)N[C@@H](CCCN=C(N)N)C(=O)O)NC(=O)[C@H](CCCN=C(N)N)NC2=O)cc1` [R(Pmc)-N-H-R-G-D-(Y-OMe)-R-C-R] displayed a concentration for half-maximal inhibition (IC50) on Integrin alpha-5/beta-1 of 4.7 µM. This lies in the single-digit micromolar range.
For `CC[C@H](C)[C@@H]1NC(=O)[C@@H](NC(C)=O)CSSC[C@@H](C(N)=O)NC(=O)[C@H](CCCNC(=N)N)NC(=O)[C@H](Cc2ccc(OC)cc2)NC(=O)[C@H](CC(=O)O)NC(=O)CNC(=O)[C@H](CCCNC(=N)N)NC(=O)[C@@H]2CCCN2C1=O` [Ac-C-I-P-R-G-D-(Y-OMe)R-C-NH2], the IC50 on Integrin alpha-5/beta-1 stood at 4.3 µM.
The compound `CCCCOc1ccc(C[C@@H]2NC(=O)[C@H](Cc3ccc(OC)cc3)NC(=O)[C@H](CC(=O)O)NC(=O)CNC(=O)[C@H](CCCN=C(N)N)NC(=O)[C@@H]3CCCN3C(=O)[C@H](CC(N)=O)NC(=O)[C@@H](NC(C)=O)CSSC[C@@H](C(N)=O)NC2=O)cc1` [Ac-C-N-P-R-G-D-(Y-O-n-butyl)-R-C-NH2] registered an IC50 at Integrin alpha-5/beta-1 of 7.7 µM.
